The target of this assay is T1, Glycogen phosphorylase, muscle form (Oryctolagus cuniculus, UniProt P00489).
T1 sequence (P00489 whole entry): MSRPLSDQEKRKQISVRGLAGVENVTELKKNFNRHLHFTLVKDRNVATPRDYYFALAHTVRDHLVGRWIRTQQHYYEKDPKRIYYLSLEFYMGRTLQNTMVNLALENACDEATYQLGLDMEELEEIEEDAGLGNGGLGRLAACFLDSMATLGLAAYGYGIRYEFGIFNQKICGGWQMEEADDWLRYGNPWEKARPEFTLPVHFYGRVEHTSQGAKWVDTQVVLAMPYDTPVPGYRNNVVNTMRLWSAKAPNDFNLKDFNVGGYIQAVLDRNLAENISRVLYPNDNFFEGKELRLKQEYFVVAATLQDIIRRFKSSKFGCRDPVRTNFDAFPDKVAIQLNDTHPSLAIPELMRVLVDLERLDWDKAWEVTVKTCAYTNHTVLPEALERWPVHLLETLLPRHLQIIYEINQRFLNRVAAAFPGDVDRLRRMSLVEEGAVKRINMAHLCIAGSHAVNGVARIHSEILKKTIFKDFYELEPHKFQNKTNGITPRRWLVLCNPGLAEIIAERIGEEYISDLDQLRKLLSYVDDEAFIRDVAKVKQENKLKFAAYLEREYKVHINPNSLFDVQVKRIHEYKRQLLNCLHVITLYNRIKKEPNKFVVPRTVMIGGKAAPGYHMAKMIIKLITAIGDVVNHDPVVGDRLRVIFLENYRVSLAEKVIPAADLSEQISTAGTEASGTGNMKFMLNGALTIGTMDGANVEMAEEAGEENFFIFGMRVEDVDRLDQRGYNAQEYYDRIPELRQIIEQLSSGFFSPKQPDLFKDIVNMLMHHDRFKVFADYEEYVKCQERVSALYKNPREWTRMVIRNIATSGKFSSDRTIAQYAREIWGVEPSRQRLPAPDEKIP

A word on the Ki: it is the dissociation constant of the complex between target and ligand, obtained from inhibition or displacement. Low values mean higher affinity, high ones lower affinity. In the case of `O=C(NC(=O)c1ccccc1)N[C@@H]1O[C@H](CO)[C@@H](O)[C@H](O)[C@H]1O`, the inhibition constant (Ki) worked out at 4.6 µM.

Source of the values: ChEMBL document CHEMBL1144234, “Novel design principle validated: glucopyranosylidene-spiro-oxathiazole as new nanomolar inhibitor of glycogen phosphorylase, potential antidiabetic agent” (Bioorg Med Chem Lett, 2008).
